Where two headings read alike, the source gives them in different places.
Molecular target: Elastase (Homo sapiens, UniProt P08246)
Test: In vitro assay of elastase with chromogenic substrate N-MeOSuc-Ala-Ala-Pro-Val-p-nitroanilide, in the presence of prodrug with or without porcine liver esterase
Experimental: Elastase was assayed in vitro using the chromogenic substrate N-MeOSuc-Ala-Ala-Pro-Val-p-nitroanilide ([S] = 0.20 mM; Km = 0.16 mM), available commercially. The assay techniques are similar to those described by Mehdi, et al., Biochemical and Biophysical Research Communications, 166, 595 (1990). The assay mixture consists of partially purified elastase and substrate (0.2 mM) in 0.1 M HEPES (pH 7.5), 0.5 M NaCl, 10% DMSO and 0.1% Brij 35. The reaction (1 or 2 mL, in a plastic cuvette) is maintained at 37°C and the hydrolysis of the substrate is followed in the presence of MDL 104,569 and 5 units/mL of porcine liver esterase (Sigma Chemical Co., cat. no. E-3128). Elastase is isolated from human sputum, although recently it has become commercially available. The rate of hydrolysis of the substrate with no inhibitor or prodrug added is assigned 100%. In the presence of 1 µM MDL 104,569, a rate of 81% was obtained; when esterase (porcine liver, Sigma Chemical Co.) was also present, the rate decreased to 24%. At a concentration of 10 µM, the rate observed from the final extent of inhibition in the assay in the presence of esterase was 130 nM, compared to a Ki of 200 nM for the parent drug measured independently.
Elastase was assayed in vitro in the presence of MDL 105,565 using the techniques and procedures described in Example 18. With MDL 105,565, at a concentration of 10 nM, a rate of 99% was obtained; when esterase was added, this rate was 76%. At a concentration of 45 nM, the rates were 94% (without esterase) and 37% (with esterase). In this case, the Ki of the liberated drug was calculated to be 13 nM, compared with a Ki of 2 nM determined independently.

Chains of the proteins cited; added tags and fusions are not shown. Residues count along the entry.
UniProt P08246, 30-267 limits assumed: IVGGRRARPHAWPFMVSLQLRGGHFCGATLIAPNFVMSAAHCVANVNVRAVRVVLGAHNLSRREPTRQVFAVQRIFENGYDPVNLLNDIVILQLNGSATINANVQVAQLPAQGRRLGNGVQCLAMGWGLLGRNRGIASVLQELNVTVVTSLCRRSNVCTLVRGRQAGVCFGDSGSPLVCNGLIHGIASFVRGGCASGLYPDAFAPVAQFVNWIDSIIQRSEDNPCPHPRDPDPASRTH

| rate of hydrolysis of the substrate (1 µM compound, esterase (porcine liver) also present, rate with no inhibitor or prodrug = 100%) | rate of hydrolysis of the substrate (1 µM compound, without esterase, rate with no inhibitor or prodrug = 100%) | Ki (read-out: rate observed from the final extent of inhibition in the assay in the presence of esterase, 10 µM compound, in the presence of esterase) | rate of hydrolysis of the substrate (10 nM compound, esterase added) | rate of hydrolysis of the substrate (10 nM compound, without esterase) | rate of hydrolysis of the substrate (45 nM compound, with esterase) | rate of hydrolysis of the substrate (45 nM compound, without esterase) | Ki (read-out: Ki of the liberated drug, calculated from the assay of the prodrug with esterase) | SMILES |
| --- | --- | --- | --- | --- | --- | --- | --- | --- |
| 24% | 81% | 0.13 µM | – | – | – | – | – | COC(=O)CCC(=O)N[C@@H](C)C(=O)N[C@@H](C)C(=O)N1CCC[C@H]1C(=O)NC(=C(OC(C)=O)C(=O)OC)C(C)C |
| – | – | – | 76% | 99% | 37% | 94% | 0.013 µM | COC(=O)/C(OC(C)=O)=C(\NC(=O)[C@@H]1CCCN1C(=O)[C@@H](NC(=O)c1ccc(C(=O)NS(=O)(=O)c2ccc(Cl)cc2)cc1)C(C)C)C(C)C |

From EP0863915B1
